# Ab-14 light chain CDR variants: yeast mating affinities

The measurements come from Li et al. 2023 (doi:10.1038/s41467-023-39022-2) through the FLAb antibody collection.

All variants were tested on one target, the spike HR2 peptide PDVDLGDISGINAS (SARS-CoV-2).

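The starting antibody came from a phage panning campaign against this peptide. The variants were designed computationally from a first round of random CDR variants and then made and measured. Several design methods are mixed in this list. The scFvs were displayed on barcoded MATa yeast, the peptide on MATalpha yeast. The frequency of each diploid, read from paired DNA barcodes, reflects how well the two displayed proteins bind. Each replicate has its own calibration line, from reference interactions of the BCL2 family. The assay was run in six technical replicates.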

Parent scFv Ab-14: VH joined to VL by a 15-residue (Gly4Ser)3 linker. Changes lie in the light chain CDRs alone.
VH: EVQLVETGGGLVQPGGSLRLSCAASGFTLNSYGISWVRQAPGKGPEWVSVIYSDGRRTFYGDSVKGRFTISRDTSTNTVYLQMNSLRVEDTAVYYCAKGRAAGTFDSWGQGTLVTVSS
VL: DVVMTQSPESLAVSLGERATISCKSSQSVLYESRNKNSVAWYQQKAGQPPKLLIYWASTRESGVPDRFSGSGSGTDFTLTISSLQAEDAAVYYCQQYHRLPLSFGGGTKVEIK

Each variant is given by its three light chain CDRs, as the data file delimits them; those of the parent are KSSQSVLYESRNKNSVA, WASTRES, QQYHRLPLS.
Kd is apparent (estimated from mating counts) and averaged on the log scale over replicates with a signal. Smaller is tighter.
"no signal" marks a missing value. The strain was present, yet no cells mated with the target were sequenced in any replicate, which points to weak or no binding.
Background: pairings of all light chain designs with three empty control strains gave a value in 4% of cases (median 430 nM, 5th percentile 38 nM). Values in that range, when seen in few replicates, are hard to tell from nonspecific mating. Also given: how often the same scFv was detected with the empty control strains.
A sequence measured in both rounds can read differently, since the two assays cover different ranges.
The authors averaged sequences with at least three values out of six and counted those with two or fewer as poor binders.
Of ten entries with the parent sequence, four were seen in most replicates (averages 2.2 nM to 240 nM), three in one and three in none, so single entries are noisy.

CDR-L1 | CDR-L2 | CDR-L3 | Kd (apparent) | detected | signal with controls
KLSMSHGYGSRMKNSVA | QASQREE | QQYHRLPLS | 4.5 nM | 6 of 6 | 3 of 18
KSSQSVLYESRNKNSVA | WASTRES | QDYHRLPLS | 38 nM | 2 of 6 | 0 of 18
KISMLINMTFEMSNNVA | EMATREK | QQYNRLPLS | no signal | 0 of 6 | 0 of 18
KLPNSTLYESRQKNSVA | DASTRES | QQYHRLPLS | 560 pM | 6 of 6 | 0 of 18
KIQQGELQESRNKNSVA | HASERES | QQYHRLPLS | 400 pM | 6 of 6 | 0 of 18
NLSIEMSYYYENRYNIA | DMTVREY | QHYSRIPLA | 4.5 nM | 6 of 6 | 1 of 18
SFSQSVLYESRMKNSVA | NASTRES | QQYHRLPLS | 630 pM | 6 of 6 | 0 of 18
KVSGSVLLWSRTANQVA | EASTRES | QQYHRLPLS | 5.2 nM | 6 of 6 | 4 of 18
KFSQSVLYESRTKNSVA | NASTRES | QQYHQLPLS | 3.1 nM | 6 of 6 | 0 of 18
KLSQSQLYESRNKNSVA | EASTRLS | QQYHRLPLS | 720 pM | 6 of 6 | 0 of 18
KSSQSGLYESSNKNSVA | WASTRES | QQYHRLPLS | 24 nM | 6 of 6 | 0 of 18
KISQMSRVGSTHSNSIA | EEATRSK | QQYHRLPLA | 9.4 nM | 6 of 6 | 1 of 18
KQSQSSLCESRNKNSVA | DASTRES | QQYHRLPLS | 1.5 nM | 6 of 6 | 4 of 18
KSSQQVLLESRNKNPVA | AASTRES | QQYHRLPLS | 62 nM | 5 of 6 | 0 of 18
TLSQMSGVESVKRNNVA | ENSTREK | QQYDRLPLT | 1.0 µM | 5 of 6 | 0 of 18
HVSPSVLYESRNKNNVA | NASTRES | QQYHRLPLS | 370 pM | 6 of 6 | 1 of 18
KFSQLQLYESRNKNSVA | NASCRES | QQYWRLPLS | 1.3 nM | 6 of 6 | 0 of 18
KAQQSDPYESRNKNSVA | SASTRSS | QQYHRLPLS | 4.1 nM | 6 of 6 | 2 of 18
QIGMLLNFESYKINNVA | QMSTRIN | QQYDRLPLS | 6.5 nM | 6 of 6 | 2 of 18
KSGQGVLDESRAKNSVA | WASTRNS | QQYHRLPLS | 940 nM | 4 of 6 | 1 of 18
NLGGEDFQDTRGMKAVA | DVSEVGD | QHYSRLPLS | 3.7 nM | 6 of 6 | 3 of 18
HINTASVTVDDHYNAVA | EQRLTSI | QQYFRLPLS | 99 nM | 4 of 6 | 0 of 18
KQDQSDWLQSRNVNSVA | QASTRES | QQYHRLPLS | 2.5 nM | 6 of 6 | 1 of 18
KSDQGADYESRNKNSVA | GASTRES | QQYHRLPLS | 700 pM | 6 of 6 | 1 of 18
KFSDSELLESRTKNSVA | NASTRES | QQYHRLPLS | 1.5 nM | 6 of 6 | 1 of 18
KLQQSWLYESRNKNSVA | NASTREE | QQYHRLPLS | 360 pM | 6 of 6 | 1 of 18
HLGGLMTWEEKNRNSVA | QQETRAE | QQYHHLPLS | 1.1 nM | 6 of 6 | 1 of 18
MISQLYNFGQFAINSVA | QASQRNA | QQYDRLPLM | no signal | 0 of 6 | 0 of 18
KLSQSVLYESRNKNSVA | EASQREQ | QQYHRLPLS | 2.6 nM | 6 of 6 | 2 of 18
HMSMLTLGGLKNRNSVA | QMTTREN | QQYDHLPLS | 2.1 nM | 6 of 6 | 3 of 18
KVSQSEWYESRMKNSVA | NASYREQ | QQYHRLPLS | 1.2 nM | 6 of 6 | 1 of 18
SLAESVHMESRNKNSVA | DNSTRES | QHYDRLPLS | 670 nM | 3 of 6 | 1 of 18
LLSQSSLYEQRNKNSVA | DASQRLS | QQYHRLPLS | 710 pM | 6 of 6 | 0 of 18
MISQVMNTLTRYGNNVA | DLQNRED | QQYFRLPLS | 16 nM | 6 of 6 | 0 of 18
KSSQSELDESINKNSVA | NASCRES | QQYHGLPLS | 2.4 nM | 6 of 6 | 1 of 18
KSSQEVLYESRNKNSVA | DASTRES | QQYHRLPLS | 670 pM | 6 of 6 | 2 of 18
IFSQSVMMGNMTRNSVA | QASTRFN | QQYHRLPLI | 170 nM | 5 of 6 | 0 of 18
HSSQSVLYESSNDNSIA | EASTRES | QQYHRLPLS | 3.9 nM | 6 of 6 | 1 of 18

Continued, with the values leading:

Kd (apparent) | detected | signal with controls | CDR-L1 | CDR-L2 | CDR-L3
21 nM | 6 of 6 | 0 of 18 | HMSAVTMMGSRHRNSVA | QMTTREN | QQYDRLPLM
7.1 nM | 6 of 6 | 2 of 18 | RSSQSVTYESRNKNSVA | HASTRES | QQYHRLPLS
720 pM | 6 of 6 | 0 of 18 | KIFQSVQYESRNKNSVA | NASDRMS | QQYHRLPLS
7.3 nM | 3 of 6 | 0 of 18 | ALRGVGYTEQVKHSAIA | DGEHLNN | QQYSMLPLS
2.4 nM | 6 of 6 | 0 of 18 | KLNHLSFVHDREKNNVA | DLNVKAS | QQYDRLPLV
650 nM | 5 of 6 | 2 of 18 | HVSESVFAQTKMKNSVA | ENSTRES | QQYDRLPLS
3.0 nM | 3 of 6 | 0 of 18 | KSSWNVLYESYNKNSVA | WASTRES | QQYARLPLS
33 nM | 3 of 6 | 0 of 18 | KSSQSVDYESRNKNSVA | WASTRES | QQYHRLPGS
710 pM | 6 of 6 | 0 of 18 | KSSQGVPYESRNKNSVA | GASTRES | QQYHRLPLS
1.0 nM | 6 of 6 | 2 of 18 | SLMQVAGYESNNHNSIA | DLRTRES | QQYHRLPLS
28 nM | 3 of 6 | 0 of 18 | KIGATLNTLYEKKNNVA | DLVEREN | QQYFRLPLS
12 nM | 6 of 6 | 3 of 18 | HISQMVMYGSCNKNNVA | QVTLRGE | QQYHRLPLS
2.7 nM | 6 of 6 | 1 of 18 | KLSQITGHMSVSKNNVA | EMVTRVN | QQYDRLPLS
3.1 nM | 6 of 6 | 2 of 18 | SLHMMPMVGYANNANVA | NASQLFS | QHYFRLPLQ
950 pM | 6 of 6 | 4 of 18 | KLSQSELYESRNKNSVA | NGSTRES | QQYHRLPLS
170 nM | 5 of 6 | 2 of 18 | KSSQHVGYESRNKNSVA | WASTREF | QQYHRLPLS
2.0 µM | 2 of 6 | 2 of 18 | KITHQMRTGMMQRSAMA | NGAMRVE | QFYSRLPLF
53 nM | 6 of 6 | 0 of 18 | KSSWAVLHESTNKNSVA | WASTRES | QQYHRLPLS
4.6 nM | 6 of 6 | 4 of 18 | KVSQSVLYESRMKNSVA | WASTRES | QQYHRLPLS
1.2 nM | 6 of 6 | 0 of 18 | TISQLMLTESRNKNNVA | GESTRES | QCYHRLPLS
120 nM | 1 of 6 | 0 of 18 | KSSQSVLYEDRNKNSHA | WASTRES | QQYARLPLS
960 pM | 6 of 6 | 0 of 18 | KISQSVLYEQRAQNSVA | EASTRED | QQYHRLPLS
15 nM | 6 of 6 | 0 of 18 | NFSQMVLSGSTLRNSVA | HASTRFD | QQYHRLPLI
15 nM | 6 of 6 | 0 of 18 | KLTHPSDSWLEHENSIA | DDNISLT | QQYHQLPLS
4.4 nM | 6 of 6 | 0 of 18 | MVTQMAMTGMMSKRSVA | NAETREN | QQYHRLPLI
7.1 nM | 6 of 6 | 0 of 18 | ALSQNGPQQHGMNDSIA | HSDQRLA | QQYYHLPLA
800 pM | 6 of 6 | 0 of 18 | KIGMTLNQLQEKKNNVA | DLVHREN | QQYHRLPLS
no signal | 0 of 6 | 0 of 18 | KSSQSVLYESRNKNSVA | DASTRES | YQYHRLPLS
780 pM | 6 of 6 | 1 of 18 | IVSQSMLGESRNKNSVA | NASTREN | QQYHRLPLS
480 pM | 6 of 6 | 1 of 18 | KLQQSELYESRNKNSVA | NASQRES | QQYHRLPLS
530 pM | 6 of 6 | 0 of 18 | KLSQSFLYESRNKNSVA | GASTRES | QQYHRLTLS
4.4 nM | 6 of 6 | 0 of 18 | FVLQSVLYESRNFNSVA | HASTRED | QQYHRLPLS
no signal | 0 of 6 | 0 of 18 | KDSQSVLMESRNKNSVA | WASTREF | QKYHRLPLS
7.1 nM | 6 of 6 | 0 of 18 | KLSMITGHMSVSKNNVA | EMETREK | QQYDRLPLS
5.8 nM | 6 of 6 | 0 of 18 | KLRVHNLMFYQNENSIA | GVSNRAY | QQYYHLPLN
790 pM | 6 of 6 | 1 of 18 | KVSQMVPYEERNKNNVA | MASTRMS | QQYHRLPLS
450 pM | 6 of 6 | 0 of 18 | KLSQSELYESRNKNSVA | NASTRRS | QQYHRLPLS
29 nM | 6 of 6 | 1 of 18 | KIYMMQGFQSRNADSIA | DNSTRGR | QQYHRLPLS

For reference, 11 entries of the list once more:

CDR-L1	CDR-L2	CDR-L3	Kd (apparent)	detected	signal with controls
NFSQMVLSGSTLRNSVA	HASTRFD	QQYHRLPLI	15 nM	6 of 6	0 of 18
KFSQSVLYESRTKNSVA	NASTRES	QQYHQLPLS	3.1 nM	6 of 6	0 of 18
MISQVMNTLTRYGNNVA	DLQNRED	QQYFRLPLS	16 nM	6 of 6	0 of 18
KLSMITGHMSVSKNNVA	EMETREK	QQYDRLPLS	7.1 nM	6 of 6	0 of 18
TISQLMLTESRNKNNVA	GESTRES	QCYHRLPLS	1.2 nM	6 of 6	0 of 18
KSSWAVLHESTNKNSVA	WASTRES	QQYHRLPLS	53 nM	6 of 6	0 of 18
KLSQSFLYESRNKNSVA	GASTRES	QQYHRLTLS	530 pM	6 of 6	0 of 18
HMSMLTLGGLKNRNSVA	QMTTREN	QQYDHLPLS	2.1 nM	6 of 6	3 of 18
HVSESVFAQTKMKNSVA	ENSTRES	QQYDRLPLS	650 nM	5 of 6	2 of 18
KLQQSELYESRNKNSVA	NASQRES	QQYHRLPLS	480 pM	6 of 6	1 of 18
KAQQSDPYESRNKNSVA	SASTRSS	QQYHRLPLS	4.1 nM	6 of 6	2 of 18